## Measured affinities in a library of Ab-91 heavy chain variants

Binding partner: SARS-CoV-2 spike HR2 peptide, sequence PDVDLGDISGINAS.

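Phage display of a naive human antibody library on the peptide gave the parent. The library (AAYL51) carries one to three amino acid substitutions per variant, with no insertions or deletions. Affinity was read by AlphaSeq, a pooled yeast mating assay with surface-displayed partners. Mating (16 h, 30 °C) was followed by selection of diploids and sequencing of their barcodes. Each replicate has its own calibration line, from reference interactions of the BCL2 family. Mating was done three times.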

Ab-91 is the parent antibody, in scFv form: VL, then a 15-residue (Gly4Ser)3 linker, then VH. The light chain is unchanged in all variants.
VL: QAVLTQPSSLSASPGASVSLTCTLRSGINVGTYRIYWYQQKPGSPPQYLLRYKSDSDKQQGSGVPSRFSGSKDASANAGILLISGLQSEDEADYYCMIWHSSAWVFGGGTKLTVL
VH: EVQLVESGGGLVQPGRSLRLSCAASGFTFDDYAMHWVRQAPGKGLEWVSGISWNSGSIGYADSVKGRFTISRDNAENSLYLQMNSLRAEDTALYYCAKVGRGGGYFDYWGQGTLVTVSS

Positions count from residue 1 of the parent VH; W53C puts C in place of W. All variants listed here change G102 of the VH, counted from its first residue. Each Kd is an estimate from the mating assay, the geometric mean of the replicates in which the pair was seen; lower is stronger. "nd" means that the variant was in the library but no mating with the target was seen in any replicate; the authors take this as a sign of poor binding, and no number exists. In this assay the parent's reference entry averaged 72 nM; its copy inside this library read 7.5 nM.

| changes | Kd (apparent) | replicates with signal | empty controls |
|---|---|---|---|
| W53C/G102V/F106L | 350 nM | 3 of 3 | 1 of 9 |
| N54V/K65L/G102T | nd | 0 of 3 | 1 of 9 |
| S57K/G102I | nd | 0 of 3 | 1 of 9 |
| F29E/V99F/G102R | 59 µM | 2 of 3 | 0 of 9 |
| G26T/W53I/G102D | nd | 0 of 3 | 0 of 9 |
| N54V/K65H/G102I | nd | 0 of 3 | 3 of 9 |
| V64A/G102M/D107V | nd | 0 of 3 | 1 of 9 |
| G102P | 43 µM | 1 of 3 | 0 of 9 |
| Y60M/G102Y | 1.5 µM | 3 of 3 | 4 of 9 |
| D62P/V99W/G102V | 33 µM | 2 of 3 | 4 of 9 |
| M34G/V64P/G102S | 10 µM | 1 of 3 | 0 of 9 |
| S57M/A61G/G102V | 460 nM | 3 of 3 | 2 of 9 |
| G102N | 82 µM | 1 of 3 | 1 of 9 |
| D30M/G102H | 360 nM | 3 of 3 | 5 of 9 |
| G56E/G102T/G103M | 1.9 mM | 1 of 3 | 3 of 9 |
| Y32R/W53G/G102P | nd | 0 of 3 | 0 of 9 |
| S55K/I58T/G102L | 16 nM | 3 of 3 | 1 of 9 |
| N54P/R101A/G102D | nd | 0 of 3 | 3 of 9 |
| S63L/G102H/G104A | 99 µM | 1 of 3 | 3 of 9 |
| T28K/G56N/G102S | 610 nM | 3 of 3 | 1 of 9 |
| A33L/G102H | nd | 0 of 3 | 1 of 9 |
| I58T/G100V/G102S | nd | 0 of 3 | 4 of 9 |
| S52V/R101Q/G102W | 62 µM | 2 of 3 | 5 of 9 |
| M34Y/I58W/G102W | nd | 0 of 3 | 0 of 9 |
| G102P/G103K | 16 µM | 1 of 3 | 3 of 9 |
| S52F/G102D/D107R | nd | 0 of 3 | 2 of 9 |
| G50T/S55E/G102R | nd | 0 of 3 | 0 of 9 |
| V64N/V99P/G102C | 1.8 µM | 1 of 3 | 2 of 9 |
| Y60W/G102Q/G103P | 16 µM | 2 of 3 | 1 of 9 |
| A33M/G102Q/F106M | nd | 0 of 3 | 0 of 9 |
| S52V/G102K/G104M | 54 µM | 1 of 3 | 2 of 9 |
| G26T/R101Y/G102T | 5.3 µM | 2 of 3 | 1 of 9 |
| A61T/G102Q/Y108C | nd | 0 of 3 | 5 of 9 |
| G56W/G102C | nd | 0 of 3 | 0 of 9 |
| V99F/G102W/G104Q | nd | 0 of 3 | 0 of 9 |
| Y32F/S57R/G102S | 120 µM | 1 of 3 | 0 of 9 |
| S55G/G59N/G102M | 97 µM | 1 of 3 | 3 of 9 |
| D62C/G102A | nd | 0 of 3 | 0 of 9 |
| F27P/G102D/F106D | 91 µM | 1 of 3 | 4 of 9 |
| D31P/V64L/G102H | 30 µM | 2 of 3 | 2 of 9 |
| D62Y/G102H/Y105D | nd | 0 of 3 | 0 of 9 |
| Y60T/V64S/G102D | 140 µM | 1 of 3 | 3 of 9 |
| D30L/G50N/G102H | nd | 0 of 3 | 2 of 9 |
| G102V | nd | 0 of 3 | 0 of 9 |
| H35N/G102C/Y105G | 550 µM | 3 of 3 | 8 of 9 |
| D31A/G50W/G102A | nd | 0 of 3 | 0 of 9 |
| G50E/G102K | 5.6 µM | 2 of 3 | 2 of 9 |
| D30G/D62C/G102A | 8.4 µM | 2 of 3 | 0 of 9 |
| T28R/G102L/F106S | nd | 0 of 3 | 1 of 9 |
| M34G/H35P/G102K | 41 µM | 1 of 3 | 1 of 9 |
| A33H/Y60G/G102L | nd | 0 of 3 | 2 of 9 |
| G50I/S52G/G102E | nd | 0 of 3 | 0 of 9 |
| S63L/V99W/G102C | nd | 0 of 3 | 0 of 9 |
| M34Y/G100M/G102H | nd | 0 of 3 | 3 of 9 |
| G100Y/G102K | 220 µM | 1 of 3 | 4 of 9 |
| S55R/I58L/G102V | 130 µM | 1 of 3 | 2 of 9 |
| S63G/G100F/G102F | nd | 0 of 3 | 0 of 9 |
| W53C/S55L/G102N | nd | 0 of 3 | 0 of 9 |
| Y32A/N54E/G102A | nd | 0 of 3 | 2 of 9 |
| A33P/I51P/G102M | 46 µM | 2 of 3 | 4 of 9 |
| F27Y/G100C/G102W | nd | 0 of 3 | 0 of 9 |
| W53I/G100K/G102R | 44 µM | 1 of 3 | 2 of 9 |
| T28C/G102L/G103D | 150 µM | 1 of 3 | 2 of 9 |
| D30S/S55F/G102E | nd | 0 of 3 | 3 of 9 |
| N54S/R101G/G102R | 47 µM | 1 of 3 | 0 of 9 |
| H35L/G102K/F106Y | nd | 0 of 3 | 2 of 9 |
| D62M/G102W/D107P | 130 µM | 2 of 3 | 2 of 9 |
| G100S/G102H/Y105E | 1.9 mM | 2 of 3 | 6 of 9 |
| V64H/G102D/G104W | 32 µM | 2 of 3 | 1 of 9 |
| S52G/W53D/G102P | nd | 0 of 3 | 1 of 9 |
| G56S/G102T | 61 µM | 3 of 3 | 6 of 9 |
| W53H/I58F/G102Y | 4.3 µM | 2 of 3 | 1 of 9 |
| S55Y/G102V/Y105P | 77 µM | 1 of 3 | 1 of 9 |
| F29I/I58T/G102K | 15 µM | 1 of 3 | 1 of 9 |

For reference, 5 entries of the list once more:

| changes | Kd (apparent) | replicates with signal | empty controls |
|---|---|---|---|
| G102P | 43 µM | 1 of 3 | 0 of 9 |
| M34G/H35P/G102K | 41 µM | 1 of 3 | 1 of 9 |
| D31P/V64L/G102H | 30 µM | 2 of 3 | 2 of 9 |
| M34Y/G100M/G102H | nd | 0 of 3 | 3 of 9 |
| G102N | 82 µM | 1 of 3 | 1 of 9 |

Background: pairings of library AAYL51 with three empty control strains gave a value in 21% of cases (median 34 µM, 5th percentile 1.8 µM). Values in that range, when seen in few replicates, are hard to tell from nonspecific mating. Also given: how often the same scFv was detected with the empty control strains.

Data: MIT Lincoln Laboratory AlphaSeq set, Engelhart et al. 2022, doi:10.1038/s41597-022-01779-4, as distributed in FLAb.